AlphaSeq binding of Ab-14 heavy chain variants to a spike HR2 peptide

From the AlphaSeq antibody data of Li et al. 2023 (doi:10.1038/s41467-023-39022-2), copy in the FLAb collection.

Antigen: PDVDLGDISGINAS, a 14-residue peptide of the SARS-CoV-2 spike HR2 region.

Parent scFv Ab-14: VH joined to VL by three GGGGS repeats. Changes lie in the heavy chain CDRs alone.
VH: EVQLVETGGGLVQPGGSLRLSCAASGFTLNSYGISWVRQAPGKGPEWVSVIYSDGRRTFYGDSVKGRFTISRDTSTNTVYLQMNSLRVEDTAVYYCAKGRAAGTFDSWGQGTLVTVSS
VL: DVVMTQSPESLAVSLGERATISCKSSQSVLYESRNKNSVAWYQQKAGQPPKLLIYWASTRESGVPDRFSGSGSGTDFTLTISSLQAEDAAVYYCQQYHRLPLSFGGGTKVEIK

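Phage display of a naive human antibody library on the peptide gave the parent. This is the validation round: designs drawn from the data on random variants, tested in the same kind of assay. Group labels follow the data file (Ctrl: baseline library sampled from a position-specific scoring matrix, with some repeated check sequences; Rand: our label for a block that the file lists under HC and that is probably the random mutants of the ten best first-round binders; En: ensemble of fine-tuned language models; GP: Gaussian process model; GPLM: also part of the Gaussian process libraries; HC: hill climbing; Gen: genetic algorithm; Gibbs: Gibbs sampling; a sequence that several methods proposed may carry one label only). The scFvs were displayed on barcoded MATa yeast, the peptide on MATalpha yeast. Binding brings cells together so that they mate, and sequencing counts the barcode pairs among the diploids. Scores were corrected for input abundance and mapped to Kd with protein pairs of known affinity run in the same pool. Each pool was mated in six replicate cultures.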

Each variant is given by its three heavy chain CDRs, as the data file delimits them; those of the parent are GFTLNSYGIS, VIYSDGRRTFYGDSVK, GRAAGTFDS.
Numbers give log10(Kd / nM), so 0 is 1 nM and 3 is 1 µM. Smaller is tighter.
Averages over replicates are reported, and they cover detected replicates only.
A pair that was not seen in any replicate is written "no signal"; this usually means weak binding, but a binder can also be missed.

CDR-H1,CDR-H2,CDR-H3,group,"log10 Kd (nM), mean",replicates with signal
GFDLNSYGIS,VIYSDGRRTFYIDSVK,GQAAGTFDA,GPLM_Gibbs,0.28,6 of 6
GFSIDEYGIS,VIYADGMRTAYVESVK,GTIDENFNT,En_Gibbs,3.59,2 of 6
GFDLNEYGIS,VIYADGSRTFYADSVK,GEVAGTFDL,En_HC,-0.26,6 of 6
GFSLNEYGIS,VIYSDGRRTFYGDSVK,GRTAGTFCS,GP_Gen,2.82,5 of 6
GFSLNEYGIS,VIYSDGRRTFYGDSVK,GRFAGTFDD,GP_HC,-0.24,6 of 6
GFDLDEYGIS,VIYADGKRTAYSDSVK,GETAGTFDQ,En_Gen,-0.48,6 of 6
GFTINSYGIS,VIYSDGRRTFYGDSVK,GRAAGTFSL,Ctrl,no signal,0 of 6
GFTLNSYGIS,VIYSDGWRTFYGDSVK,GEAAGTFDS,Ctrl,no signal,0 of 6
GFDIDEFGIS,VIYADGSRQVYQDNVK,GVGTGTFTD,En_Gibbs,no signal,0 of 6
GFTLNSYGIS,VIYSDGRRTFYADSVK,GNEAGTFDT,GP_Gibbs,-0.11,6 of 6
GFELNSYGIS,VIYSDGQRTFYGDSVK,GRTAGTFDK,GP_Gibbs,0.93,6 of 6
GFTLNSYGIS,VIYSDGRRAFYGDSVK,GWAAGTFDS,Ctrl,2.14,1 of 6
GFDLNSYGIS,VIYSDGRRTFYLDSVK,GQLAGTFDS,GPLM_HC,0.70,6 of 6
GFTLNDYGIS,VIYSDGRRTFYADSVK,GRAAGTFRS,GPLM_HC,no signal,0 of 6
GFDLEEMGVS,VIYADGIRTAYHQKVK,GQAAGTFDL,En_Gibbs,-0.29,6 of 6
GFDLDEYGIS,VIYADGMRSAIRESVK,GEISGTLNA,En_Gibbs,0.43,5 of 6
GFDLNSYGIS,VIYSDGKRTFYKDSVK,GRQAGTFDS,GP_Gibbs,0.77,6 of 6
GYTLNSYGIS,VIYSDGRRQAYSDSVK,GRAAGTFDS,Ctrl,1.63,4 of 6
GFDLEDYGIS,VIYADGRRTAYIDSVK,GETAGTFDV,En_HC,-1.06,4 of 6
GFNLNSYGIS,VIYADGRRTFYGDSVK,GRAAGTFDS,Ctrl+GPLM_Gen,0.02,9 of 12
GFQLNSYGIS,KIYSDGLRTAYGDSFK,GRNAKTFDS,Ctrl,no signal,0 of 6
GKALDEYGIS,VIYADGQRVFYSDTVK,GNQGFTVDV,En_Gibbs,no signal,0 of 6
GFTLNSYGIS,VIYSDGRRTFYSDSVK,GADAGTFDS,GP_HC,0.51,5 of 6
GFTLDEYGIS,VIYADGMRTFYADSVK,GEAAGTFDI,En_HC,0.10,6 of 6
GFSIDEYGIS,VIYADGSRQVYQDKVK,GKGTGNFTT,En_Gibbs,-0.21,6 of 6
GFSINEYGIS,VIYADGMRTAYSESVK,GTIDEDFNT,En_Gibbs,no signal,0 of 6
GFDLNEYGIS,VIYADGMRTAYADDVK,GEVAGTFDQ,En_Gen,-0.31,6 of 6
GFNLNSYGIS,VIYSDGRRTFYSDRVK,GQAAGTFDS,GP_Gibbs,1.08,1 of 6
KFDLNSYGIS,VIYSDGRRTFYGDSVK,GRTAGTFDD,GP_Gen,1.09,2 of 6
GFTLNEYGIS,VIYSDGRRTFYTDSVK,GWAAGTFDL,GP_HC,0.67,6 of 6
GFTLNSYGIS,VIYADGRRTFYHDSVK,GRAAGTFDS,Ctrl,-0.22,6 of 6
GFDLNEYGIS,VIYADGVRTAYTDSVK,GNTAGTFDV,En_Gen,0.44,6 of 6
GFDLNSYGIS,VIYSDGRRTFYGDQVK,GRNAGTFDS,GP_Gen,0.34,6 of 6
GFEIQEFGIS,VIYADGFRTNYAENVK,GTLAGTFTT,En_Gibbs,1.09,2 of 6
GFDLEDYGIS,VIYADGRRTAYIDSVK,GEAAGTFDM,En_HC,0.07,6 of 6
GFDLNEYGIS,VIYADGQRTYYADSVK,GNVAGTFDL,En_Gen,-1.49,6 of 6
GFDLNEYGIS,VIYADGKRTFYADSVK,GNTAGTFDS,En_HC,0.36,6 of 6
LFQLNSYGIS,VIYSDGRRTFYGDSVK,GRAAGTFDS,Ctrl,no signal,0 of 6
GFNLNSYGIS,VIYSDGRRTFYSDSVK,GNAAGTFDS,GP_Gen,0.19,6 of 6
GFTLNEYGIS,VIYSDGRRTFYGDSVK,GRLAGTFKM,Ctrl,2.24,1 of 6

Further variants, results first:

"log10 Kd (nM), mean",replicates with signal,CDR-H1,CDR-H2,CDR-H3,group
0.45,6 of 6,GFELNSYGIS,VIYSDGRRTFYIDSVK,GKVAGTFDS,GP_Gen
-0.02,6 of 6,GFDLNSYGIS,VIYSDGKRTFYGDSVK,GRTAGTFDQ,GP_Gibbs
0.20,4 of 6,GFSLNSYGIS,VIYSDGRRTFYGDKVK,GRQAGTFDS,GP_Gen
1.15,2 of 6,GFNLNSYGIS,VIYSDGRRTFYKDKVK,GQAAGTFDS,GP_Gibbs
0.85,6 of 6,GFDLDEYGIS,VIYADGMRTAYVDSVK,GNNAGTFDI,En_Gen
no signal,0 of 6,GFDLEEYGIS,VIYADGMRTTAIDKVK,GIAGGLFLV,En_Gibbs
-0.11,6 of 6,GFQLNEYGIS,VIYSDGRRTFYGDSVK,GRTAGTFDV,GPLM_Gibbs
-0.89,6 of 6,GFDLNEYGIS,VIYADGRRTFYADNVK,GNVAGTFDQ,En_HC
0.05,6 of 6,GFNLDEYGIS,VIYADGVRTAYADSVK,GETAGTFDV,En_Gen
2.49,2 of 6,GFTLNEYGVS,VIYSDGRRTFYGDSVR,GRAAGTFKS,Ctrl
no signal,0 of 6,GFTLESYGIS,VIYSDGRRTFYIDSVK,GRAAGTFDS,GPLM_Gen
no signal,0 of 6,GFTLNSYGIS,VIYSDGRRAFYDDSVK,GIAAQTFDS,Ctrl
-0.67,6 of 6,GFDLNEYGIS,VIYADGRRTYYVDSVK,GQVAGTFDV,En_HC
no signal,0 of 6,GFTLNSYGIS,VIYSCGRRTFYDDSVK,GQLAKTFDS,Rand
no signal,0 of 6,GFTLNSYGIS,VIYSDGRRTAYGDSVK,ARAAGTFDS,Ctrl
0.19,6 of 6,GFDLNSYGIS,VIYSDGRRTFYSDSVK,GQAAGTFDS,GPLM_Gen
1.54,6 of 6,GFTLNSYGIS,VIYSDGERTFYGDSVK,GTAAGTFDS,Ctrl
-0.54,6 of 6,GFDLNEYGIS,VIYADGMRTAYSDSVK,GNEAGTFDM,En_Gen
no signal,0 of 6,GFTLNEYGIS,VIYSDGRRWFYTDSVK,GRFHGTFDS,Rand
-0.06,6 of 6,GFSLNSYGIS,VIYADGRRTFYGDSVK,GRTAGTFDS,GPLM_Gen
0.23,6 of 6,GFQLNEYGIS,VIYSDGRRTMYGDSVK,GRTAGTFDS,GP_Gen
1.89,1 of 6,GFDLNSYGIS,VIYSDGRRTFYGDSVK,GKTAGTFDC,GP_Gen
2.43,1 of 6,GFDIQEYGIS,VIYADGVRSAYIDNVK,GDTGSSFLE,En_Gibbs
-1.06,6 of 6,GFNLNEYGIS,VIYADGRRTFYADSVK,GEIAGTFDM,En_HC
no signal,0 of 6,GNSLDEYGIS,VIYADGMRTAYTDDVK,GLVAMTLVD,En_Gibbs
0.34,6 of 6,GFSLNEYGIS,VIYSDGRRTWYTDSVK,GRFAGTFDS,GPLM_HC
-0.12,6 of 6,GFDLEEYGIS,VIYADGKRTAYADSVK,GNVAGTFDL,En_Gen
no signal,0 of 6,GFDLNEYGIS,VIYADGRRTFYSDSVK,GEAAGFFDI,En_HC
0.19,6 of 6,GFDLNEYGIS,VIYADGVRTAYADDVK,GEQAGTFDV,En_Gen
0.43,5 of 6,GFELNSYGIS,VIYSDGRRTFYGDSVK,GWTAGTFDS,GPLM_Gibbs
-0.03,6 of 6,GFDLNEYGIS,VIYADGKRTFYSDSVK,GNAGGTFDT,En_HC
1.82,2 of 6,GFELESYGIS,VIYSDGRRTFYGDSVK,GRTAGTFDS,GP_Gen
no signal,0 of 6,GFDLLEYGIS,VIYADGMRVAYAPDVK,GQEGQLVVD,En_Gibbs
-0.10,6 of 6,GFDLDEYGIS,VIYADGQRTAYVDSVK,GNQAGTFDV,En_Gen
0.23,9 of 12,GFTLNDYGIS,VIYSDGRRTFYTDSVK,GRAAGTFDS,Ctrl+GPLM_Gen
no signal,0 of 6,GFTLNSYGIS,VFYSDGRRTFYHDYVK,GQLAGNFDS,Rand
-0.72,6 of 6,GFDLNEYGIS,VIYADGVRKAYADSVK,GQNAGTFDV,En_Gen
0.58,6 of 6,GFSLNSYGIS,VIYSDGRRTFYGDSVK,GRTAGTFDQ,GPLM_Gen
no signal,0 of 6,GSTLNSYGIS,VIYSDGRRTFYLDSVK,GRAAGTFDS,Ctrl
-0.15,6 of 6,GFDLNEYGIS,VIYADGRRTAYIDSVK,GNVAGTFDL,En_Gen

Top 6 of the variants detected in all replicates, tightest first:

CDR-H1,CDR-H2,CDR-H3,group,"log10 Kd (nM), mean",replicates with signal
GFDLNEYGIS,VIYADGQRTYYADSVK,GNVAGTFDL,En_Gen,-1.49,6 of 6
GFNLNEYGIS,VIYADGRRTFYADSVK,GEIAGTFDM,En_HC,-1.06,6 of 6
GFDLNEYGIS,VIYADGRRTFYADNVK,GNVAGTFDQ,En_HC,-0.89,6 of 6
GFDLNEYGIS,VIYADGVRKAYADSVK,GQNAGTFDV,En_Gen,-0.72,6 of 6
GFDLNEYGIS,VIYADGRRTYYVDSVK,GQVAGTFDV,En_HC,-0.67,6 of 6
GFDLNEYGIS,VIYADGMRTAYSDSVK,GNEAGTFDM,En_Gen,-0.54,6 of 6

Nonspecific signal, from three strains lacking the peptide, appeared in 1% of pairings of all heavy chain designs, centred on 2.08 (5% of these signals below 0.84); values are not corrected for it.
In the paper, a design with two or fewer of six values counts as a poor binder.
Some sequences occur more than once in the pool; their replicates are pooled.
Of ten entries with the parent sequence, four were seen in most replicates (averages 0.34 to 2.37), three in one and three in none, so single entries are noisy.
Values of this round are not directly comparable with the first-round values of the same sequences.